Data set [1] deals with alkaline phosphatase. The data set is described as follows: Kinetics of alkaline phosphatase inhibition by pesticides, CSPD chemiluminescence (Lineweaver-Burk). Conditions: for Ki / α (interaction parameter, measure of inactivation of the enzyme in the presence of the inhibitor): CSPD 0.05 to 0.3 mM, enzyme 125 pM; for Ki: 0.1M DEA pH 10, from slopes and intercepts of Lineweaver-Burk plots; for α (interaction parameter, measure of inactivation of the enzyme in the presence of the inhibitor): pH 10.

In data set [2] the test system is alkaline phosphatase. The data set can be described thus: Detection and quantification of pesticides by inhibition of alkaline phosphatase chemiluminescence signal in solution. Conditions: 364 μM (100 ppm) paraoxon, 1.82 μM CSPD.
Data set [3] can be described thus: Stability at the working pH of 10. Conditions: pH 10.

What is called Ki is a measure of affinity in units of concentration, obtained from inhibition or displacement. Low readings indicate a stronger hold on the target, high ones a looser hold on the target.

Turning to `CCOP(=O)(OCC)Oc1ccc([N+](=O)[O-])cc1`, in data set [1], the Ki was found to be 1700 µM and the “α (interaction parameter, measure of inactivation of the enzyme in the presence of the inhibitor)” value worked out at 0.334. Besides, the “type of inhibition (Lineweaver-Burk plot)” value in data set [1] (lines do not intersect on either axis, mixed type of inhibition) is “mixed type of inhibition”. The “inhibition of enzyme activity” value in data set [2] is “completely inhibit”.

On to `COP(=S)(OC)Oc1ccc([N+](=O)[O-])cc1`, for which, in data set [1], the inhibitory constant (Ki) is 60 µM and the “α (interaction parameter, measure of inactivation of the enzyme in the presence of the inhibitor)” value is reported as 0.380.

Regarding `CCOC(=O)CC(SP(=S)(OC)OC)C(=O)OCC` (stereo not shown), the “stability at the working pH” value in data set [3] is “not particularly stable”.

For the origin of these results see US5846753A, “Chemiluminescence-based method for rapid and sensitive in-situ detection of organophosphorus compounds and metal ions” (dated 1998).
